By UniProt entry, the sequences of proteins in these tests, tags left out. Where a name states a change or a piece, a line headed by the entry shows the natural chain unless it says otherwise.
UniProt P41968: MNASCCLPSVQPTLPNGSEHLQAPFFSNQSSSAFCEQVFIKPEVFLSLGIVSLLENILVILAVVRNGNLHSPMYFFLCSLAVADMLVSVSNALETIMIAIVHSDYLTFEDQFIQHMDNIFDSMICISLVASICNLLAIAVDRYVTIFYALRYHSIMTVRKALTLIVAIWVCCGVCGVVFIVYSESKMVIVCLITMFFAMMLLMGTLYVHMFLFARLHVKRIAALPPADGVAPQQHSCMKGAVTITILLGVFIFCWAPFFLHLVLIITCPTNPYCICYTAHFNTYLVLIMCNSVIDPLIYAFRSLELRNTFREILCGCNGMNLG

In US20060293223A1 (Eli Lilly and Company Patent Division, priority 2003, published 2006):

Target: human MC3R (Homo sapiens, UniProt P41968)
Assay: Melanocortin receptor whole cell cAMP accumulation assay, MC3 (Table 2, MC3 Potency, printed as Ki)
Type: cell-based
Conditions: HEK 293 cells

Row | Substance | Ki [nM]
1 | Ac-cyclo[Cys-His-(4-F-D-Phe)-Arg-Trp-hCys]-NH2 [Compound 184] | 128
2 | Ac-Lys(ipr)-cyclo[Cys-Glu-His-D-Phe-Arg-Trp-Cys]-NH2 [Compound 59] | 73.6
3 | Ac-Tyr-Arg-cyclo[Cys-Glu-His-D-Phe-Arg-Trp-Cys]-Ser-Pro alcohol [Compound 120] | 13.5
4 | 5-guanidinovaleryl-cyclo[Cys-Glu-His-D-Phe-Arg-Trp-Cys]-NH2 [Compound 42] | 43.2
5 | Ac-Tyr-Arg-cyclo[Cys-Pro-His-D-Phe-Arg-Trp-Cys]-NH2 [Compound 20] | 54.7
6 | Ac-Tyr-Arg-cyclo[Cys-Glu-His-D-Phe-Arg-Trp-Cys]-Ser-Pro-NH2 [Compound 119] | 16.1
7 | Ac-cyclo[Cys-Glu-His-(4-Cl-D-Phe)-Arg-Trp-Cys]-NH2 [Compound 32] | 17.1
8 | Tyr-Arg-cyclo[Cys-Glu-His-D-Phe-Arg-Trp-Cys]-NH2 [Compound 68] | 23.2
9 | Ac-Tyr-Arg-cyclo[Cys-Met-His-D-Phe-Arg-Trp-Cys]-NH2 [Compound 18] | 23.3
10 | N-phenylsulfonyl-cyclo[hCys-His-D-Phe-Arg-Trp-penicillamine]-NH2 [Compound 175] | 40.3
11 | Ac-cyclo[Cys-Glu-His-D-Phe-Arg-Trp-Cys]-Ser-Pro-NH2 [Compound 36] | 127
12 | Ac-Arg-cyclo[hCys-His-D-Phe-Arg-Trp-hCys]-NH2 [Compound 195] | 14.1
13 | Ac-Tyr-Ser-cyclo[Cys-Glu-His-D-Phe-Arg-Trp-Cys]-NH2 [Compound 129] | 273
14 | Ac-Tyr-Arg-cyclo[hCys-Glu-His-D-Phe-Arg-Trp-Cys]-NH2 [Compound 166] | ≥ 500
15 | Ac-Tyr-Arg-cyclo[Cys-Glu-His-D-Phe-Arg-Trp-Cys]-Ser alcohol [Compound 116] | 69.3
16 | Arg-cyclo[Cys-Glu-His-D-Phe-Arg-Trp-Cys]-OH [Compound 45] | ≥ 500

Row | Substance | Ki [nM]
17 | Ac-Tyr-Arg-cyclo[Cys-Glu-His-D-Phe-Arg-Trp-Cys]-Lys-Pro-NH2 [Compound 121] | 4.08
18 | Ac-Tyr-Arg-cyclo[Cys-Glu-His-D-Phe-Arg-Trp-Cys]-OH [Compound 73] | 411
19 | Tyr-Arg-cyclo[Cys-Gly-His-D-Phe-Arg-Trp-Cys]-NH2 [Compound 11] | 126
20 | Ac-Tyr-Arg-cyclo[Cys-Glu-His-D-Phe-Arg-Trp-Cys]-glycinol [Compound 114] | 46.3
21 | Ac-Tyr-Arg-cyclo[Cys-Gln-His-D-Phe-Arg-Trp-Cys]-OMe [Compound 10] | 18.6
22 | N-(4-phenylsulfonamido-4-oxo-butyryl)-cyclo[hCys-His-D-Phe-Arg-Trp-Cys]-NH2 [Compound 152] | 42.4
23 | Ac-Arg-cyclo[Cys-Glu-(1-Me-His)-D-Phe-Arg-Trp-Cys]-NH2 [Compound 51] | 429
24 | N-phenylsulfonyl-cyclo[hCys-His-D-Phe-Arg-Trp-Cys]-NH2 [Compound 150] | 36.9
25 | Ac-cyclo[Cys-Glu-(1-Me-His)-D-Phe-Arg-Trp-Cys]-NH2 [Compound 34] | ≥ 500
26 | Ac-Arg-cyclo[Cys-His-(4-F-D-Phe)-Arg-Trp-hCys]-NH2 [Compound 190] | 33
27 | Ac-Tyr-Arg-cyclo[hCys-His-D-Phe-Arg-Trp-Cys]-OH [Compound 165] | 63.8
28 | N-(2-naphthalenesulfonylamino-4-oxo-butyryl)-D-Arg-cyclo[Cys-Glu-His-D-Phe-Arg-Trp-Cys]-NH2 [Compound 65] | 73.1
29 | Ac-Tyr-Arg-cyclo[Cys-His-His-D-Phe-Arg-Trp-Cys]-NH2 [Compound 13] | 31.6
30 | Ac-cyclo(S—CH2—S)[Cys-His-D-Phe-Arg-Trp-Cys]-NH2 [Compound 198] | ≥ 500
31 | Ac-Tyr-Arg-cyclo[Cys-Glu-(1-Me-D-His)-(4-Br-D-Phe)-Arg-Trp-Cys]-NH2 [Compound 91] | 386
